Laboratory results from article PMC5898815 (Journal of medicinal chemistry, 2018).

Assays:
[1] = target: DCN1 (Homo sapiens, UniProt Q96GG9); assay: Isothermal titration calorimetry, equilibrium binding; conditions: versus compound 1
[2] = test system: DCN1 and DCN2; assay: Pulse-chase isoform selectivity, NEDD8 transfer from UBE2M to CUL2; assay type: biochemical, human; conditions: pulse-chase assay against all five DCN family members
[3] = target: DCN1-UBE2M protein-protein interaction (Homo sapiens, UniProt Q96GG9); assay type: binding

CCCC(C)N1CCC(N(Cc2ccccc2)C(=O)Nc2cccc(C(F)(F)F)c2)CC1 (stereo not drawn) [Compound 52, 1-benzyl-1-(1-(pentan-2-yl)piperidin-4-yl)-3-(3-(trifluoromethyl)phenyl)urea]
Fold tighter binding to DCN1 compared to HTS hit 1 [1]: ten-fold more tightly bound
Selectivity for inhibiting neddylation activity of DCN1 and DCN2 over DCN3-5 [2]: highly selective
Fold increase in biochemical TR-FRET potency compared to HTS hit 1 [3]: 100 fold
